In the NIST ThermoML archive (doi:10.1021/je900916e):

Experiment: cn = amount concentration of the nth substance listed, in mol/dm3
Settings: 101 kPa, Liquid, Advanced Conductivity Orion 162A

CCC[N+](CCC)(CCC)CCC.O=C([O-])C(F)(F)C(F)(F)C(F)(F)C(F)(F)C(F)(F)C(F)(F)C(F)(F)F [tetrapropylammonium perfluorooctanoate] + O
Settings | electrical conductivity [S/m]
303.15 K, c1 = 0.003474 | 0.01705
303.15 K, c1 = 0.003931 | 0.01837
303.15 K, c1 = 0.00438 | 0.01898
303.15 K, c1 = 0.004819 | 0.01954
303.15 K, c1 = 0.00525 | 0.01997
303.15 K, c1 = 0.005674 | 0.0204
303.15 K, c1 = 0.006294 | 0.0209
303.15 K, c1 = 0.006896 | 0.0214
303.15 K, c1 = 0.007579 | 0.022
303.15 K, c1 = 0.00824 | 0.0226
303.15 K, c1 = 0.008882 | 0.0231
303.15 K, c1 = 0.00959 | 0.0236
308.15 K, c1 = 0.000528 | 0.00324
308.15 K, c1 = 0.001044 | 0.00611
308.15 K, c1 = 0.00155 | 0.00888
308.15 K, c1 = 0.002046 | 0.01161
308.15 K, c1 = 0.002532 | 0.01414
308.15 K, c1 = 0.003008 | 0.01657
308.15 K, c1 = 0.003474 | 0.01894
308.15 K, c1 = 0.003931 | 0.0203
308.15 K, c1 = 0.00438 | 0.021
308.15 K, c1 = 0.004819 | 0.0215
308.15 K, c1 = 0.005357 | 0.0221
308.15 K, c1 = 0.005882 | 0.0227
308.15 K, c1 = 0.006496 | 0.0234
308.15 K, c1 = 0.007094 | 0.0239
308.15 K, c1 = 0.00777 | 0.0245
308.15 K, c1 = 0.008426 | 0.0252
308.15 K, c1 = 0.00915 | 0.0259
313.15 K, c1 = 0.000434 | 0.00302
313.15 K, c1 = 0.00086 | 0.00567
313.15 K, c1 = 0.001279 | 0.00818
313.15 K, c1 = 0.001691 | 0.01052
313.15 K, c1 = 0.002096 | 0.01293
313.15 K, c1 = 0.002494 | 0.01538
313.15 K, c1 = 0.002886 | 0.0176
313.15 K, c1 = 0.003271 | 0.01978
313.15 K, c1 = 0.00365 | 0.0218
313.15 K, c1 = 0.004023 | 0.0228
313.15 K, c1 = 0.00439 | 0.0234
313.15 K, c1 = 0.004751 | 0.024
313.15 K, c1 = 0.005257 | 0.0245
313.15 K, c1 = 0.005752 | 0.0251
313.15 K, c1 = 0.006332 | 0.0258
313.15 K, c1 = 0.006896 | 0.0265
313.15 K, c1 = 0.007447 | 0.0271
313.15 K, c1 = 0.008071 | 0.0276
318.15 K, c1 = 0.000495 | 0.00372
318.15 K, c1 = 0.00098 | 0.00708
318.15 K, c1 = 0.001456 | 0.01024
318.15 K, c1 = 0.001923 | 0.01335
318.15 K, c1 = 0.002381 | 0.01634
318.15 K, c1 = 0.00283 | 0.01918
318.15 K, c1 = 0.003271 | 0.0219
318.15 K, c1 = 0.003704 | 0.0243
318.15 K, c1 = 0.004128 | 0.0256
318.15 K, c1 = 0.004545 | 0.0263
318.15 K, c1 = 0.004955 | 0.0268
318.15 K, c1 = 0.005456 | 0.0276
318.15 K, c1 = 0.006044 | 0.0285
318.15 K, c1 = 0.006616 | 0.0291
318.15 K, c1 = 0.007173 | 0.0298
318.15 K, c1 = 0.007806 | 0.0306
318.15 K, c1 = 0.008506 | 0.0314
